Assay results as given in US20250186374A1 (priority 2022, published 2025).

Chains of the proteins cited; added tags and fusions are not shown. Residues count along the entry.
UniProt P07711, 114-333: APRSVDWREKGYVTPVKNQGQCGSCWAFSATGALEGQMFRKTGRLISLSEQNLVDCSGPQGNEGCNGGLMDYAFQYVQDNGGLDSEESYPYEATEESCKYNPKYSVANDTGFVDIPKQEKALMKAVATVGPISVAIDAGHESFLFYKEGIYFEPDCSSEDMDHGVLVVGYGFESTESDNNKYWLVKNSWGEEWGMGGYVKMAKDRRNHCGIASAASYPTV

Columns and labels:
Cathepsin B = Cathepsin B (Homo sapiens, UniProt P07858); settings: read-out: CatB IC50
Cathepsin L = Cathepsin L (Homo sapiens, UniProt P07711); settings: read-out: CatL IC50

Row | Structure (SMILES) | IC50 (Cathepsin B) | IC50 (Cathepsin L)
1 | Cl.NCCOc1ccc(Cl)cc1C(=O)NCC(=O)Nc1ccc([N+](=O)[O-])cc1Cl [JMX0286, 2-(2-Aminoethoxy)-5-chloro-N-(2-((2-chloro-4-nitrophenyl)amino)-2-oxoethyl)benzamide hydrochloride] | 46.4 µM | 111 µM
2 | CC(C)(C)OC(=O)NCCOc1ccc(Cl)cc1C(=O)NCC(=O)Nc1ccc([N+](=O)[O-])cc1Cl [JMX0301, tert-Butyl(2-(4-chloro-2-((2-((2-chloro-4-nitrophenyl)amino)-2-oxoethyl)carbamoyl)phenoxy)ethyl)carbamate] |  | 135 µM
